## Antibody variant affinities, Ab-95 light chain, assay 2

Target: peptide PDVDLGDISGINAS, taken from heptad repeat 2 (HR2) of SARS-CoV-2 spike.

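The parent was found by panning a naive human phage display library on the peptide. Variants in AAYL52 differ from the parent at up to three CDR positions; double and triple changes were sampled at random. In AlphaSeq, yeast of one mating type display the scFv and yeast of the other type display the target. Pairs that bind mate more often; barcode pairs of the diploids are counted by sequencing. Each replicate has its own calibration line, from reference interactions of the BCL2 family. There are three technical replicates.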

Ab-95 is the parent antibody, in scFv form: VH, then the linker GGGGSGGGGSGGGGS, then VL. The heavy chain is unchanged in all variants.
VH: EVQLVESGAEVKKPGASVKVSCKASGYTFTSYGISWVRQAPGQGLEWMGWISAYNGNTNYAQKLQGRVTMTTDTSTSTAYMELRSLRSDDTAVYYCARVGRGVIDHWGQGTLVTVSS
VL: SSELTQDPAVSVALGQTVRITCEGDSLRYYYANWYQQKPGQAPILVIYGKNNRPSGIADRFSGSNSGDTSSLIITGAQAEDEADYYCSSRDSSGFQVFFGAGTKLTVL

Variants are written as CDR1, CDR2 and CDR3 of the light chain (limits as in the source). Parent: EGDSLRYYYAN, GKNNRPS, SSRDSSGFQVF. The read-out is the apparent dissociation constant on a log10 scale (nM): the lower, the stronger. Averages over replicates are reported, and they cover detected replicates only. "n.d." means that the variant was in the library but no mating with the target was seen in that replicate; the authors take this as a sign of poor binding, and no number exists. Background: pairings of library AAYL52 with three empty control strains gave a value in 28% of cases (median 3.91, 5th percentile 2.90). Values in that range, when seen in few replicates, are hard to tell from nonspecific mating. For each scFv, signals with the empty controls are counted beside the result, with their mean in brackets.

| # | CDR-L1 | CDR-L2 | CDR-L3 | replicates, log10 nM | mean log10 Kd (nM) | signal with controls |
|---|---|---|---|---|---|---|
| 1 | DGDSLRYYYAN | GKNNRPY | SSRDSEGFQVF | 2.89 / 2.97 / 2.96 | 2.94 | 5 of 9 (3.61) |
| 2 | EGDSLRYYYSN | GKNNRPS | SSRMSLGFQVF | 2.98 / 3.07 / 2.40 | 2.81 | 2 of 9 (4.20) |
| 3 | EGDSLRYFYAN | GKNNRPP | SSMDSSGFQVF | n.d. / n.d. / n.d. | n.d. | 2 of 9 (3.53) |
| 4 | EGDDLRYYYAN | GYNNRPS | SSRDSSGFQVP | n.d. / 4.04 / n.d. | 4.04 | 2 of 9 (4.64) |
| 5 | EGDSLRGYYAC | GKNNRPS | ESRDSSGFQVF | n.d. / n.d. / n.d. | n.d. | 0 of 9 |
| 6 | EPSSLRYYCAN | GKNNRPS | SSRDSSGFQVF | n.d. / 5.60 / 3.53 | 4.57 | 4 of 9 (4.17) |
| 7 | NGDSLRYYYAN | GKNNRPS | SSRDSSGFLIF | 1.75 / 1.78 / 1.24 | 1.59 | 2 of 9 (3.61) |
| 8 | EGDSLRYYYAN | SVNNRPS | SSRDSGGFQVF | n.d. / 3.15 / 3.35 | 3.25 | 3 of 9 (3.85) |
| 9 | EGDGNRYYYAN | GKNNRPS | SSRDSSGFPVF | 3.31 / 3.09 / 3.29 | 3.23 | 3 of 9 (4.04) |
| 10 | EGDSLRYYYAN | GKTNRPS | SSRDSSGFPVH | 3.76 / 3.48 / 2.61 | 3.28 | 4 of 9 (3.75) |
| 11 | EGDSLRYYYAN | GKNNRPS | SSTDASGFQVA | 3.23 / 2.69 / 3.02 | 2.98 | 3 of 9 (4.11) |
| 12 | EGDYLRYYYAN | GKNNRPS | SSRDSTGFQVF | 3.29 / 2.92 / 2.22 | 2.81 | 3 of 9 (3.79) |
| 13 | EGDSLRYWYAN | GKNNRPS | SSRDSSGQQKF | 3.46 / n.d. / 3.81 | 3.64 | 0 of 9 |
| 14 | SGDSNKYYYAN | GKNNRPS | SSRDSSGFQVF | 2.70 / 2.29 / 2.30 | 2.43 | 0 of 9 |
| 15 | EGDFLPYYYAN | GKNNRPS | SSRASSGFQVF | 5.45 / 4.11 / n.d. | 4.78 | 1 of 9 (4.99) |
| 16 | EGDSLRYYYGN | GKNNRPS | SSRDSSDFAVF | n.d. / n.d. / n.d. | n.d. | 0 of 9 |
| 17 | EGDSLRYYVAN | GKPNYPS | SSRDSSGFQVF | 3.66 / n.d. / n.d. | 3.66 | 5 of 9 (4.10) |
| 18 | EGDSLRYYGAN | GKNSRPS | SSRDSSGFQVG | 2.38 / 2.38 / 1.98 | 2.25 | 5 of 9 (3.83) |
| 19 | EGDSLRYYYAN | VKNNRPS | SERDSSGFQVF | 5.16 / 5.19 / n.d. | 5.18 | 4 of 9 (3.74) |
| 20 | EGDSARYYYAN | GKNNRPS | SSRYSTGFQVF | n.d. / 3.70 / 3.65 | 3.67 | 4 of 9 (3.50) |
| 21 | EGSSLRFYYAQ | GKNNRPS | SSRDSSGFQVF | 4.88 / 4.05 / n.d. | 4.46 | 2 of 9 (4.90) |
| 22 | EGDSLRYYYAN | GKNNRNS | SSDDSSIFQVF | n.d. / n.d. / n.d. | n.d. | 0 of 9 |
| 23 | EGDSLRHYYAN | GKNNEPA | SSRDSSGFQVF | 3.16 / 3.24 / 3.88 | 3.43 | 5 of 9 (3.74) |
| 24 | FGQSLRYYAAN | GKNNRPS | SSRDSSGFQVF | 2.30 / 2.31 / 2.33 | 2.31 | 6 of 9 (3.95) |
| 25 | EGDSLRYYYAN | GHNNEPS | SSRDSSKFQVF | n.d. / n.d. / n.d. | n.d. | 3 of 9 (3.47) |
| 26 | ENDLLRYYYAN | GKNNRPS | SSRASSGFQVF | 4.12 / n.d. / n.d. | 4.12 | 4 of 9 (3.36) |
| 27 | RGDSLRYYYAN | VKNNRPS | SSTDSSGFQVF | n.d. / 4.01 / n.d. | 4.01 | 2 of 9 (4.15) |
| 28 | EGDSLRYADAN | GKNNRPS | SSRDSSGFQVR | 1.42 / 1.36 / 0.90 | 1.23 | 5 of 9 (4.01) |
| 29 | EGDSLRWYYAR | GKNNRPS | SQRDSSGFQVF | 2.97 / 2.66 / 2.45 | 2.70 | 2 of 9 (4.20) |
| 30 | EGDSLRYYYAN | QKNDRPC | SSRDSSGFQVF | 3.81 / 3.21 / 3.93 | 3.65 | 5 of 9 (3.92) |
| 31 | EGDSLRYYYAP | GKNNRPS | SSRDSSQGQVF | 3.39 / n.d. / n.d. | 3.39 | 6 of 9 (4.06) |
| 32 | EGRSLRYPYLN | GKNNRPS | SSRDSSGFQVF | 3.17 / 2.56 / 2.47 | 2.73 | 4 of 9 (3.55) |
| 33 | EGDYLRYYYAW | GKNNAPS | SSRDSSGFQVF | 3.19 / 3.13 / n.d. | 3.16 | 6 of 9 (4.14) |
| 34 | EGDSIRYYYAN | GKNNRPS | SSRDGSGFQVF | 3.03 / 2.50 / 2.26 | 2.60 | 5 of 9 (3.90) |
| 35 | ELDSLRYYYAN | GKNNRGS | SSRDSSGFQVQ | n.d. / 3.46 / n.d. | 3.46 | 1 of 9 (3.87) |

Excerpt, the final 2 entries:

{"CDR-L1": "EGDSIRYYYAN", "CDR-L2": "GKNNRPS", "CDR-L3": "SSRDGSGFQVF", "replicates, log10 nM": "3.03 / 2.50 / 2.26", "mean log10 Kd (nM)": "2.60", "signal with controls": "5 of 9 (3.90)"}
{"CDR-L1": "ELDSLRYYYAN", "CDR-L2": "GKNNRGS", "CDR-L3": "SSRDSSGFQVQ", "replicates, log10 nM": "n.d. / 3.46 / n.d.", "mean log10 Kd (nM)": "3.46", "signal with controls": "1 of 9 (3.87)"}

For reference, the parent read 2.31 as the reference entry and 2.25 as a member of this library.

Reference: Engelhart et al. 2022, doi:10.1038/s41597-022-01779-4. File: FLAb, binding data.